The test system of this assay is pERK in NF1-LOF tumor cell lines sNF96.2, MeWo, and NCI-H1838. As to the kind of experiment: pERK modulation pattern, MSD ELISA, statements on all three NF1-LOF tumor cell lines. The note with it: 1 hour after treatment, 10 μmol/L to 1.52 nmol/L. A general note: In an ELISA, binding on a coated surface is turned into a signal by an enzyme label.
Take `O=C1CCc2c(Oc3ccc4c(c3)[C@@H]3[C@H](O4)[C@H]3c3nc4ccc(C(F)(F)F)cc4[nH]3)ccnc2N1` [BGB-283]: the “pERK modulation pattern over concentration” value was “bell-shaped curve of pERK modulation”.

On to `Cc1ccc2c(Nc3cccc(Cl)c3F)nccc2c1NC(=O)c1csc2c(N)ncnc12` [Belvarafenib], for which the “pERK modulation pattern over concentration” value is given as “bell-shaped curve of pERK modulation”.

In the case of `Cc1ccc(NC(=O)c2ccnc(C(F)(F)F)c2)cc1-c1cc(OCCO)nc(N2CCOCC2)c1` [LXH254], the “pERK modulation pattern over concentration” value is on record as “bell-shaped curve of pERK modulation”.

On to `N#Cc1c(Oc2ccc(F)c(NC(=O)Cc3cccc(C(F)(F)F)c3)c2)ccc2nc(NC(=O)C3CC3)sc12` [TAK-632], for which the “pERK modulation pattern over concentration” value is listed as “bell-shaped curve of pERK modulation”.

In the case of `CCCS(=O)(=O)Nc1ccc(F)c(C(=O)c2c[nH]c3ncc(-c4ccc(Cl)cc4)cc23)c1F` [Vemurafenib], the “pERK modulation pattern over concentration” value was “pERK levels increased with vemurafenib concentration”.

For the origin of these results see article PMC12015663 (Cancer Research Communications, 2025).
